# Test results from US20100047228.
substance,measurement,setting,value
urokinase,"Km (µM), urokinase activation",delta-plasminogen,30 µM
same,"Km for urokinase activation, fold against plasminogen",delta-plasminogen,approximately 30-fold higher than for plasminogen
same,"kcat (min^-1), urokinase activation",delta-plasminogen,80 min⁻¹
same,"kcat/Km (µM^-1min^-1), urokinase activation",delta-plasminogen,2.67 µM⁻¹ min⁻¹
same,"Km (µM), urokinase activation",full-length plasminogen,1.2 µM
same,"kcat (min^-1), urokinase activation",full-length plasminogen,2.3 min⁻¹
same,"kcat/Km (µM^-1min^-1), urokinase activation",full-length plasminogen,1.92 µM⁻¹ min⁻¹
